{"source": "patent US20110223597A1", "about": "(priority 2010, published 2011)", "tested_on": "HLM", "conditions": "300 μM OLZ; UGT2B10 (*1/*1) HLM", "data": [{"molecule": "Cc1cc2c(s1)Nc1ccccc1N=C2N1CCN(C)CC1", "note": "[OLZ, Olanzapine]", "values": [{"measurement": "difference in formation of any OLZ glucuronide, UGT1A4 (*2/*2) versus UGT1A4 (*1/*1) HLM", "result": "no significant difference"}]}]}
